Assay results published in patent publication US20240082221A1, “COMPOSITIONS AND METHODS FOR THE IDENTIFICATION OF COMPOUNDS THAT PROTECT AGAINST LIPOFUSCIN CYTOTOXICITY” (priority 2021, published 2024).

Tested on: ARPE-19 cells
Conditions: necrosis without light, apoptosis with blue-light
Method: Cell Viability Assay. […] 1× AlamarBlue solution prepared in OptiMEM was used to replace the media supernatant and the plate's fluorescence was determined at 555 nm excitation/585 nm emission with a SpectraMax M (Molecular Devices, CA, USA), after 1 h. […] The exact timing of appearance of far-red (DRAQ7=plasma membrane leakage) and blue (NUC405=caspase 3 activation) fluorescence signals was critical to differentiate apoptosis and necrosis from secondary events, such as membrane damage and generalized proteolytic activation during the late phase of apoptosis and necrosis, respectively.
Real time monitoring of necrotic and apoptotic cell-death. Cell-death assay to study Lipofuscin's dark toxicity was performed. 90% confluent ARPE-19 or hfRPE were incubated overnight in serum free media supplemented with indicated LB concentration. Viability was assessed at 24 hrs by AlamarBlue®, or microscopy with NUC405/DRAQ7. Real time monitoring of necrotic (red) and apoptotic (blue) cell-death was performed by automated fluorescence microscopy. The exact timing of appearance of far-red (DRAQ7=plasma membrane leakage) and blue (NUC405=caspase 3 activation) fluorescence signals was critical to differentiate apoptosis and necrosis from secondary events, such as membrane damage and generalized proteolytic activation during the late phase of apoptosis and necrosis, respectively.

Substance: all-trans-retinal dimers [ATRD]
- potency as inducer of necrosis and apoptosis: less potent inducer of necrosis and apoptosis than A2E
